Experimental data from US6713266B1 (Isodiagnostika Inc., priority 1998, dated 2004).

Assays:
Format in all cases: binding
[1] = tested on: Mouse polyclonal sera (AM9-9-DVS-KLH immunogen); assay: Antigen panel (direct) ELISA, mouse polyclonal sera; details: for Percent reactivity: OD to test antigen/ OD to AM19-9-DVS-HSA × 100; for OD: coated test antigen
Experimental: (§1) 1. Use Falcon Pro-bind immunoplate.
(§2) 2. Dilute coating antigen (Ag) to 1.0 μg/mL in carbonate-bicarbonate buffer. Use glass tubes.
(§3) 3. Add 100 μL to each well of plate. Store overnight at 4° C.
(§4) 4. Shake out wells and wash 3× with 200 μL PBS/0.05% TWEEN™ (polyoxyethylene-sorbitol) (v/v) per well.
(§5) 5. Add blocking buffer, 200 μL per well (PBS/2% BSA (w/v)). Incubate for 60 min at 37° C.
(§6) 7. Add 100 μL per well of test antibody appropriately diluted in PBS/0.1% Tween (v/v). Incubate 60 min at 37° C.
(§7) 9. Dilute alkaline phosphatase conjugated anti-mouse IgG (Pierce cat #31322) in PBS/0.1% TWEEN™ (polyoxyethylene-sorbitol) (v/v) to 1:2000 concentration. Add 100 μL per well and incubate at 37° C. for 60 min.
(§8) 10. Wash 3× as in step 4.
(§9) 11. Prepare enzyme substrate using Sigma #104 alkaline phosphatase substrate tablets (1 mg/mL in 10% diethanolamine (v/v) substrate buffer). Add 100 μL per well and incubate in the dark at room temperature. Absorbance can be read at 405 nm at approximately 15-min intervals.
Sera from mice immunized with the AM9-9-DVS immunogen which reacted strongly to the AM19-9-DVS hapten were further characterized by antigen panel ELISA (Table 13). Sera from these mice recognize epitopes on the AM19-9-DVS-HSA molecule. […] The reduction in antibody binding to panel antigens coupled through the amino acid #1 residue is presumed to be due to masking of the Ab epitope recognition site. As the AM9-9-DVS immunogens would present the amino acid #1 face of the molecule for immune recognition, blocking the amino acid #1 residue with the DVS linker arm would thereby block Ab/Ag interaction.

[2] = tested on: Mouse monoclonal antibody AM1-2E10; assay: Antigen panel (direct) ELISA, MoAb tissue culture supernatant; details: for Percent reactivity: AM1-2E10, OD to test antigen / OD to CSA-DVS-HSA × 100; for OD: AM1-2E10 TCS, coated test antigen
Experimental: as §1, §2, §3, §4, §5, §6, §7, §8, §9
(§10) Spleen cells from mice immunized with the AM1-DVS conjugates have been used to prepare monoclonal antibody secreting hybridoma cells. IgM and IgG anti-CSA MoAbs have been isolated by direct ELISA to CSA-DVS-HSA conjugates. Table 17 illustrates the reactivity of TCS from two of these monoclonal antibody clones (AM1-2E10 and Am1-7F5).

[3] = tested on: Mouse monoclonal antibody AM1-7F5; assay: as above; details: for Percent reactivity: AM1-7F5, OD to test antigen / OD to CSA-DVS-HSA × 100; for OD: AM1-7F5 TCS, coated test antigen
Experimental: as §1, §2, §3, §4, §5, §6, §7, §8, §9, §10

[4] = tested on: Mouse monoclonal antibody AM19-1-7E12-2; assay: as above; details: for Percent reactivity: AM19-1-7E12-2, OD to test antigen / OD to AM19-1-DVS (1)-HSA × 100; for OD: AM19-1-7E12-2 TCS, coated test antigen
Experimental: as §1, §2, §3, §4, §5, §6, §7, §8, §9
(§11) Spleen cells from mice immunized with the AM19-1-DVS (1) conjugate have been used to prepare MoAb secreting hybridoma cells. Anti-AM19-1-DVS (1) ELISA reactive IgM and IgG MoAb isotypes have been isolated. Table 19 illustrates the reactivity of TCS from two of these anti-AM19-1-DVS MoAbs (AM19-1-7E12-1 and AM19-1-7E12-2).

[5] = tested on: Mouse monoclonal antibody AM19-1-7E12-1; assay: as above; details: for Percent reactivity: AM19-1-7E12-1, OD to test antigen / OD to AM19-1-DVS (1)-HSA × 100; for OD: AM19-1-7E12-1 TCS, coated test antigen
Experimental: as §1, §2, §3, §4, §5, §6, §7, §8, §9, §11

[6] = tested on: Mouse polyclonal sera (CSA-DVS-KLH immunogen); assay: Antigen panel (direct) ELISA, mouse polyclonal sera; details: for Percent reactivity: OD to test antigen / OD to CSA-DVS-HSA × 100; for OD: coated test antigen
Experimental: as §1, §2, §3, §4, §5, §6, §7, §8, §9
These sera had low reactivity to the AM19-9-DVS-HSA conjugate.

[7] = tested on: Mouse monoclonal antibody CSA-2G9; assay: Antigen panel (direct) ELISA, MoAb tissue culture supernatant; details: for Percent reactivity: CSA-2G9, OD to test antigen / OD to CSA-DVS-HSA × 100; for OD: CSA-2G9 TCS, coated test antigen
Experimental: as §1, §2, §3, §4, §5, §6, §7, §8, §9
(§12) Spleen cells from mice immunized with the CSA-DVS conjugate have been used to prepare monoclonal antibody secreting hybridoma clones. IgM and IgG anti-CSA secreting clones have been isolated. Table 15 illustrates the reactivity of tissue culture supernatants (TCS) from two of these anti-CSA MoAbs (CSA-1H6 and CSA-2G9).

[8] = tested on: Mouse monoclonal antibody CSA-1H6; assay: as above; details: for Percent reactivity: CSA-1H6, OD to test antigen / OD to CSA-DVS-HSA × 100; for OD: CSA-1H6 TCS, coated test antigen
Experimental: as §1, §2, §3, §4, §5, §6, §7, §8, §9, §12

[9] = tested on: Mouse polyclonal sera (AM1-DVS-KLH immunogens); assay: Antigen panel (direct) ELISA, mouse polyclonal sera; details: for Percent reactivity: OD to test antigen / OD to CSA-DVS-HSA × 100; for OD: coated test antigen
Experimental: as §1, §2, §3, §4, §5, §6, §7, §8, §9
Individual mouse sera collected 10 days post-secondary and tertiary immunizations were assayed for antibody titre by direct ELISA. Mice having high anti-CSA titres were assayed for specificity by antigen panel reactivity.

[10] = tested on: Mouse polyclonal sera (AM9-1-DVS-KLH immunogen); assay: as above; details: for Percent reactivity: OD to test antigen / OD to AM9-1-DVS-HSA × 100; for OD: coated test antigen
Experimental: as §1, §2, §3, §4, §5, §6, §7, §8, §9
The reduction in antibody binding to the AM19-9 hapten is presumed to be due to masking of the epitope recognition site, (i.e., blocking the modified a.a. #9 residue with the DVS linker arm would thereby block Ab/Ag interaction). […] Screening for specific anti-AM9 MoAbs can also be achieved.

[11] = tested on: Mouse polyclonal sera (AM19-1-DVS (1) - KLH immunogen); assay: as above; details: for Percent reactivity: OD to test antigen/OD to AM19-1-DVS (1) × 100; for OD: coated test antigen
Experimental: as §1, §2, §3, §4, §5, §6, §7, §8, §9
(§13) These serum samples were assayed by direct ELISA for antibody titre to specific haptens. Sera showing high antibody reactivity to AM19 were further characterized by antigen panel ELISA (Table 6).

[12] = tested on: Mouse polyclonal sera (AM19-1-DVS (2) - KLH immunogen); assay: as above; details: for Percent reactivity: OD to test antigen/OD to AM19-1-DVS (2) × 100; for OD: coated test antigen
Experimental: as §1, §2, §3, §4, §5, §6, §7, §8, §9, §13

[13] = tested on: Mouse polyclonal sera (AM19-9-DVS-KLH immunogens); assay: as above; details: for Percent reactivity: OD to test antigen / OD to AM19-9-DVS-HSA × 100; for OD: coated test antigen
Experimental: as §1, §2, §3, §4, §5, §6, §7, §8, §9
Sera from mice immunized with the AM19-9-DVS immunogen showing high reactivity to the AM19-9-DVS hapten were further characterized by antigen panel ELISA (Table 9).

FK-DVS-HSA: FK conjugate with HSA used as panel antigen
Percent reactivity ([1]; Mouse 1): 0%
OD ([1]; Mouse 1): 0.016
Percent reactivity ([1]; Mouse 2): 0%
OD ([1]; Mouse 2): 0
Percent reactivity ([1]; Mouse 3): 2.6%
OD ([1]; Mouse 3): 0.046
Percent reactivity [2]: 0%
OD [2]: 0.015
Percent reactivity [3]: 0%
OD [3]: 0
Percent reactivity [4]: 0%
OD [4]: 0
Percent reactivity [5]: 0%
OD [5]: 0.029
Percent reactivity ([6]; Mouse 1): 0%
OD ([6]; Mouse 1): 0.005
Percent reactivity ([6]; Mouse 2): 1.0%
OD ([6]; Mouse 2): 0.010
Percent reactivity [7]: 1.1%
OD [7]: 0.029
Percent reactivity [8]: 0%
OD [8]: 0
Percent reactivity ([9]; Mouse 1): 0%
OD ([9]; Mouse 1): 0
Percent reactivity ([9]; Mouse 2): 0%
OD ([9]; Mouse 2): 0
Percent reactivity ([10]; Mouse 1): 0%
OD ([10]; Mouse 1): 0
Percent reactivity ([10]; Mouse 2): 0%
OD ([10]; Mouse 2): 0
Percent reactivity ([11]; Mouse 1): 0%
OD ([11]; Mouse 1): 0
Percent reactivity ([11]; Mouse 2): 0%
OD ([11]; Mouse 2): 0
Percent reactivity ([12]; Mouse 3): 0%
OD ([12]; Mouse 3): 0
Percent reactivity ([12]; Mouse 4): 0%
OD ([12]; Mouse 4): 0
Percent reactivity ([13]; Mouse 5): 1.0%
OD ([13]; Mouse 5): 0.033
Percent reactivity ([13]; Mouse 6): 0%
OD ([13]; Mouse 6): 0.032

Rapa-suc-HSA: Rapamycin conjugate with HSA used as panel antigen
Percent reactivity ([1]; Mouse 1): 1.6%
OD ([1]; Mouse 1): 0.048
Percent reactivity ([1]; Mouse 3): 0%
OD ([1]; Mouse 3): 0
Percent reactivity [2]: 0%
OD [2]: 0.015
Percent reactivity [3]: 0%
OD [3]: 0.008
Percent reactivity [4]: 0%
OD [4]: 0
Percent reactivity [5]: 0%
OD [5]: 0
Percent reactivity ([6]; Mouse 1): 0%
OD ([6]; Mouse 1): 0
Percent reactivity ([6]; Mouse 2): 0%
OD ([6]; Mouse 2): 0
Percent reactivity [7]: 0%
OD [7]: 0.006
Percent reactivity [8]: 0%
OD [8]: 0
Percent reactivity ([9]; Mouse 1): 0%
OD ([9]; Mouse 1): 0
Percent reactivity ([9]; Mouse 2): 0%
OD ([9]; Mouse 2): 0
Percent reactivity ([10]; Mouse 1): 0%
OD ([10]; Mouse 1): 0
Percent reactivity ([10]; Mouse 2): 0%
OD ([10]; Mouse 2): 0
Percent reactivity ([11]; Mouse 1): 0%
OD ([11]; Mouse 1): 0
Percent reactivity ([11]; Mouse 2): 1.2%
OD ([11]; Mouse 2): 0.036
Percent reactivity ([12]; Mouse 3): 0%
OD ([12]; Mouse 3): 0
Percent reactivity ([12]; Mouse 4): 0%
OD ([12]; Mouse 4): 0
Percent reactivity ([13]; Mouse 5): 0%
OD ([13]; Mouse 5): 0.020
Percent reactivity ([13]; Mouse 6): 0%
OD ([13]; Mouse 6): 0.033
